Measurements from US20240277696A1, “METHODS OF TREATING NERVE AGENT-INDUCED SEIZURES” (published 2024).

Test system: nerve agent induced seizures
Experiment: Arresting sarin (nerve agent) induced seizures in rodents, EEG scored by 7-point Likert Scale
Details: rodents with sarin-induced seizures; tezampanel 2.5, 5, 7.5 or 15 mg/kg IM at 60 minutes (one cohort 6 hours) post sarin, after midazolam; hourly averages over 24 hours; FIG. 1

O=C(O)[C@@H]1C[C@H]2C[C@@H](CCc3nn[nH]n3)CC[C@H]2CN1
Electroencephalogram (EEG) derived seizure severity measured by a 7-point Likert Scale: successfully treated
